What was measured:
[1] = target: α1^T129Aβ2γ2L (Mus musculus, UniProt P62812+P63137, T156A); test: Whole-cell patch clamp, mutant α1^T129Aβ2γ2L GABAARs in HEK293 cells
[2] = target: α1β2^R207Qγ2L (Mus musculus, UniProt P62812+P63137, R231Q); test: Whole-cell patch clamp, mutant α1β2^R207Qγ2L GABAARs in HEK293 cells
[3] = target: α1β2^R119Qγ2L (Mus musculus, UniProt P62812+P63137, R146Q, form not given); test: Whole-cell patch clamp, mutant α1β2^R119Qγ2L GABAARs in HEK293 cells (negative control); conditions: dark-adapted (trans) azogabazine

By UniProt entry, the sequences of proteins in these tests, tags left out. Residues count along the entry.
UniProt P62812, 28-455 T156A: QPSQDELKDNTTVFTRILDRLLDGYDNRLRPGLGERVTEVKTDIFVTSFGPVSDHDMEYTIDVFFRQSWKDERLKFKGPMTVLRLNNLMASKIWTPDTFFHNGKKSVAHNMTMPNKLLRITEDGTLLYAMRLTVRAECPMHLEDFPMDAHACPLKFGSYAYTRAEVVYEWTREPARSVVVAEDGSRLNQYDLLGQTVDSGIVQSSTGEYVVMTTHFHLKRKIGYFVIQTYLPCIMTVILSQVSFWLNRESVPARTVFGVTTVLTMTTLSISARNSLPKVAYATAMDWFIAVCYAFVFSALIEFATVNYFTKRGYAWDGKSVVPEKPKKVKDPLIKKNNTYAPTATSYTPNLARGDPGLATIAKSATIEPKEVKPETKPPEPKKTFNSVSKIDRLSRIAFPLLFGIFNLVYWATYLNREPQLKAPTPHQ
UniProt P62812, 28-455: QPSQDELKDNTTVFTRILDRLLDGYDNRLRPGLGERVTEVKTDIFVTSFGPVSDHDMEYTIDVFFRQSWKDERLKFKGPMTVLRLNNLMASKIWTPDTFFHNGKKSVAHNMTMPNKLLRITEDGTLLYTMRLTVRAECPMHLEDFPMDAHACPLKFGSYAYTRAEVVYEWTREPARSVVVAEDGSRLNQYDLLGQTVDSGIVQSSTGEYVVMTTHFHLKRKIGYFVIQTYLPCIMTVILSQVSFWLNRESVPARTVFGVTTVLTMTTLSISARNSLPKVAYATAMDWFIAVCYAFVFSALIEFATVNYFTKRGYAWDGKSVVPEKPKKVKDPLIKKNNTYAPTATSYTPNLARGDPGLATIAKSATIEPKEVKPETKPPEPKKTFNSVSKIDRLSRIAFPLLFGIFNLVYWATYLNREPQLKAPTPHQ
UniProt P62812, 28-455 R146Q: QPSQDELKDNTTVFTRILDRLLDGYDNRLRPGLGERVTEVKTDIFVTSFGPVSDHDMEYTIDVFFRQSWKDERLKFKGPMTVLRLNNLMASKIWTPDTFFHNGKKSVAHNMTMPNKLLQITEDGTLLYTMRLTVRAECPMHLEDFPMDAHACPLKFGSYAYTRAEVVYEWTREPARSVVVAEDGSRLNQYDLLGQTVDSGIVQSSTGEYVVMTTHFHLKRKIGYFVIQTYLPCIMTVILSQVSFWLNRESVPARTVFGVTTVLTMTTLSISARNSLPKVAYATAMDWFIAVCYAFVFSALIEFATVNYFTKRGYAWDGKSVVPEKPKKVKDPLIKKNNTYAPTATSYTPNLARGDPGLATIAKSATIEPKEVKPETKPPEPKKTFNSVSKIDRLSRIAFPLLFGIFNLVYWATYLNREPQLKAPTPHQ
UniProt P63137, 25-512 limits assumed, stated change not applied: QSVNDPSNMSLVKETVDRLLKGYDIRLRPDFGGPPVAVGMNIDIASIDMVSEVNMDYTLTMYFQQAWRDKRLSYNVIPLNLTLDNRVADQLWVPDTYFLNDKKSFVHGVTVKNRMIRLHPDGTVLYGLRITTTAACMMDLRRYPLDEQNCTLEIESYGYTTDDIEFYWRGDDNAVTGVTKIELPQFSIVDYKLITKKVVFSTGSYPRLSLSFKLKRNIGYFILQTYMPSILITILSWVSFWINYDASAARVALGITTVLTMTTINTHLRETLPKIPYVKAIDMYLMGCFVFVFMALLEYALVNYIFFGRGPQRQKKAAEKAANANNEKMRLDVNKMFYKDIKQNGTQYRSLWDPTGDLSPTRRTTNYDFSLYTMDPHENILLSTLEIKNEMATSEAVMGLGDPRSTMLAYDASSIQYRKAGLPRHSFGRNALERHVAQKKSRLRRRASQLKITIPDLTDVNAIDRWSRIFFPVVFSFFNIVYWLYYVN
UniProt P63137, 25-512 R231Q limits assumed: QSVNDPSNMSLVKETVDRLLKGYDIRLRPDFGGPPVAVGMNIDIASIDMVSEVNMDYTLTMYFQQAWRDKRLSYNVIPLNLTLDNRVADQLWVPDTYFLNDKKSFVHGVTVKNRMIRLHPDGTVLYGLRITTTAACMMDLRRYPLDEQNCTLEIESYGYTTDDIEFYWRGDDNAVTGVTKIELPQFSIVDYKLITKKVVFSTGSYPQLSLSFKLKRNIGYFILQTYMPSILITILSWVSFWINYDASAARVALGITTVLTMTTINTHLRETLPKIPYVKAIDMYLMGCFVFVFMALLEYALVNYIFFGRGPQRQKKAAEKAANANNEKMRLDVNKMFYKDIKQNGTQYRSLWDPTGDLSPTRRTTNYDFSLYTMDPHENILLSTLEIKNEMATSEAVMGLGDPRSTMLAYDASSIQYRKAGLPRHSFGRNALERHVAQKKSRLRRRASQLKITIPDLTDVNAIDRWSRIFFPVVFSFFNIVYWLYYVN
UniProt P63137, 26-512: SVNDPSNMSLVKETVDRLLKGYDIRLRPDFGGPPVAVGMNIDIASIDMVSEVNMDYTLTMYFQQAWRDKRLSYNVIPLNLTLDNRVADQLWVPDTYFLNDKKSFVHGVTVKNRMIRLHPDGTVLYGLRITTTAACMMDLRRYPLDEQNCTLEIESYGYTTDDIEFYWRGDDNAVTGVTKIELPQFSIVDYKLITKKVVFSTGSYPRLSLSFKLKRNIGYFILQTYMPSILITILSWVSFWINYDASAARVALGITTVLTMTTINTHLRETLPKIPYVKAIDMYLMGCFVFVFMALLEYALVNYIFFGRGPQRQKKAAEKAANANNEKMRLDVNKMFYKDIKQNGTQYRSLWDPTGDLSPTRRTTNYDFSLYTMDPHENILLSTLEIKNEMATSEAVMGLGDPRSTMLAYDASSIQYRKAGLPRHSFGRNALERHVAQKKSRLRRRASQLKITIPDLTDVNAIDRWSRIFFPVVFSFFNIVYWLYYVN

For `N=c1ccc(-c2ccc(N=Nc3ccccc3)cc2)nn1CCCC(=O)O` [azogabazine], the “reduction of potency compared to wild-type receptors” value [1] was 10 fold, the “reduction of potency compared to wild-type receptors” value [2] was 10 fold and the IC50 [3] was 24.4 nM. It also gave a pIC50 [3] of 7.61 ± 0.02.

Source: paper PMC7482436, “Optopharmacology reveals a differential contribution of native GABAA receptors to dendritic and somatic inhibition using azogabazine” (Neuropharmacology, 2020)
